Here are results for 32 compounds from PubChem BioAssay AID889 (National Center for Advancing Translational Sciences (NCATS), 2007).

The chains behind the UniProt entries cited, without tags or fusion partners. Residues count along the entry.
UniProt P55210, 24-198 limits assumed: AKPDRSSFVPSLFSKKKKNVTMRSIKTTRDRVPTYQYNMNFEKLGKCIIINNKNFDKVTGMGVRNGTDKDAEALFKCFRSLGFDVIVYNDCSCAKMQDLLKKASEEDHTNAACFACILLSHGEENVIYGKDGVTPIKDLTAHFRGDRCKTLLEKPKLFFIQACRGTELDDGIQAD
UniProt P55210, 207-303 limits assumed: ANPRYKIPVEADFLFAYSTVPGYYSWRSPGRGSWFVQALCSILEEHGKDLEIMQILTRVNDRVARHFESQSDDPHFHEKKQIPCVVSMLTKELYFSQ

The entries are a selection whose mix differs from that of the whole data set. Inconclusive results are not listed. Activity calls are given as the source filed them. The call rests on the fitted dose curve; in most records, active means well fitted inhibition curve with a large enough effect in the main read-out, with a control signal flat (not every such curve was filed as active); inconclusive means small, poorly fitted or top-dose-only effect, or a change in a side signal; inactive means flat fitted curve, though single readings scatter.

The target in this test is Caspase-7 (Homo sapiens) (UniProt P55210). The experiment in a line: qHTS Assay for Allosteric/Competitive Inhibitors of Caspase-7. Further: % of control where 0% means no effect. The settings on record: recombinant caspase-7, Ac-DEVD-AFC fluorescence rate; at 57.5 µM (top of the series) unless noted. An excerpt: NIH Molecular Libraries Screening Centers Network [MLSCN]
NIH Chemical Genomics Center [NCGC]
PI Name: Dr. James Wells,
Dr. Enrique Perez-Paya, Dr.Janice Williams, Dr. Dennis Wolan, a person
The caspases (Cysteine Aspartyl Protease) comprise a related family of 14 dimeric proteases that are critical mediators of apoptosis (programmed cell death) and inflammation. The caspases represent an important class of drug targets for stroke, ischemia, cancer and inflammatory diseases. […] One goal of this project was to identify compounds that act as allosteric inhibitors via stabilizing the procaspase form of the enzyme. Previous work in Well's laboratory has shown that such allosteric inhibitors can be identified and these act by binding at the dimer interface of enzyme (Hardy, Lam et al., 2004).
The biochemical assay was configured using purified caspase 7 at a high enzyme concentration to promote formation of the homodimers and thus facilitate the identification of allosteric inhibitors. The overall goal was to identify reversible inhibitors with better drug-like properties than the currently available set of aspartyl-containing peptidomimetics that covalently bind the active site. Caspase 7 was assayed using the profluorescent substrate Ac-DEVD-AFC. After initiation of the assay with substrate the plates were rapidly read using an automated robotic system (Kalypsys, Inc.) to maintain consistent timing. A kinetic mode of detection was used where the initial rate was collected (estimated final product formation was ~10%). Compounds were screened as a concentration-titration series that ranged from 57 uM to 0.7 nM. Below is the protocol used for caspase 7.
NCGC Assay Protocol Summary:
Caspase 7 was prepared in buffer (50 mM HEPES pH 7.5, 50 mM KCl, 200 mM NaCl, 10 mM DTT, 0.1% CHAPS) at a concentration of 66.6 nM and 3 uL was dispensed to all wells using black solid Kalypsys 1536-well plates. 20 nL of DMSO containing compounds was added using a pin-tool (Kalypsys Inc.) to columns 5-48. Then 20 nL of DMSO solution from a control plate was added to columns 1-4. Controls were: Column 1, 16 point titration with each concentration in duplicate (1:1 dilutions in DMSO; final starting concentration was 57 uM) of the caspase 7 inhibitor Ac-DEVD-CHO (Alexis Biochemicals); Column 2, a 16 point titration with each concentration in duplicate of the free AFC fluorophore prepared in DMSO (Alexis Biochemicals), final starting was 40 uM; Column 3 neutral (DMSO only) control; Column 4: DMSO alone, to serve as a negative control (no substrate was added). Then 1 uL of 20 uM the substrate Ac-DEVD-AFC (Alexis Biochemicals) prepared in the same buffer was dispensed to all wells except columns 2 and 4 and the plates were immediately transferred (< 1 min) to the Viewlux. The plates were then exposed using 405 nm excitation/520 nm emission filters for 4 sec and read at 20 sec intervals for 3 min. Final enzyme concentration was 50 nM and the final substrate concentration was 5 uM.
Concentration-response curves were fitted to the data calculated from slope of the linear regression of fluorescent intensity versus time (the rate). The concentration-effect curves were then classified based on curve quality (r2), response magnitude and degree of measured activity. […] Inconclusive compounds had appreciable concentration-dependent effects on both the measured rate and the interpolated basal fluorescence intensity at the start of the reaction but where the basal fluorescent intensity was marginal (e.g. < 10-fold). Inconclusive compounds also encompass highly fluorescent compounds (>100-fold increases in fluorescent intensities values relative to controls) where artificial concentration-dependent decreases in the rate occurred at high compound concentrations due to fluorescent interferences.
Keywords: Caspase 7, proteases, profluorescent, MLSMR, MLSCN, NIH Roadmap, qHTS, NCGC
Turning to `COc1ccccc1OP(C)(=O)Nc1ccc(C)c(C)c1` (configuration not stated), the activity change, negative = inhibition was inactive: 2.88%.

As for `Cc1nc2ccc3ccccc3c2o1.O=[N+]([O-])c1cc([N+](=O)[O-])c(O)c([N+](=O)[O-])c1`, the activity change, negative = inhibition was inactive: -7.77%.

Regarding `CP(=O)(Nc1ccccn1)Oc1ccccc1` (configuration not stated), the activity change, negative = inhibition is inactive: -2.03%.

For `OCCSCCO`, the activity change, negative = inhibition was inactive: 0.761%.

For the compound `COc1ccccc1OP(C)(=O)Nc1c(C)n(C)n(-c2ccccc2)c1=O` (configuration not stated), the activity change, negative = inhibition is inactive: 0.815%.

Regarding `CP(=O)(Oc1ccccc1)N1CCOC1=O` (configuration not stated), the activity change, negative = inhibition is inactive: 1.05%.

For the compound `N#[O+].[C-]#N.[C-]#N.[C-]#N.[C-]#N.[C-]#N.[Fe+2].[Na+].[Na+]`, the activity change, negative = inhibition was inactive: 0.0357%.

In the case of `C/C1=C2N=C(/C=C3N=C(/C(C)=C4\[N-][C@@](C)([C@H]5N=C1[C@@](C)(CCC(=O)NC[C@H](C)OP(=O)([O-])O[C@@H]1[C@H](O)[C@H](n6cnc7cc(C)c(C)cc76)O[C@@H]1CO)[C@@H]5CC(N)=O)[C@](C)(CC(N)=O)[C@H]4CCC(N)=O)[C@@](C)(CC(N)=O)[C@@H]\3CCC(N)=O)C(C)(C)[C@@H]/2CCC(N)=O.[C-]#N.[Co+3]`, the activity change, negative = inhibition is inactive: -13.1% [at 25.7 µM].

For `CN(C)CCOC(=O)C(O)(c1ccccc1)C1CCCCC1` (configuration not stated), the activity change, negative = inhibition is inactive: -2.77%.

In the case of `Cc1c([N+](=O)[O-])cccc1[N+](=O)[O-]`, the activity change, negative = inhibition was inactive: -0.822%.

On to `Cc1ccc([N+](=O)[O-])c([N+](=O)[O-])c1`, for which the activity change, negative = inhibition was inactive: 1.76%.

Regarding `CCOP(C)(=S)SCC(=O)NC(C)(CC)C(=O)O` (configuration not stated), the activity change, negative = inhibition was inactive: 0.073%.

In the case of `CCOP(=O)(CC)OCC`, the activity change, negative = inhibition was inactive: 0.784%.

For the compound `[NH4+].[O-][Cl+3]([O-])([O-])[O-]`, the activity change, negative = inhibition is inactive: -0.421%.

For `CCN(CCCl)Cc1ccccc1C`, the activity change, negative = inhibition was inactive: -0.187%.

For the compound `Cc1ccccc1NP(C)(=O)Nc1ccccc1C`, the activity change, negative = inhibition is inactive: -0.566%.

On to `NNC(NN)NN.n1nc(-c2nn[nH]n2)n[nH]1`, for which the activity change, negative = inhibition is inactive: -1.21% [at 11.5 µM].

Consider `CP(=O)(Nc1ccc2c(c1)OCCO2)Oc1ccccc1` (configuration not stated), for which the activity change, negative = inhibition was inactive: 1.44%.

For `CP(=O)(Nc1ccccc1F)Oc1ccccc1` (configuration not stated), the activity change, negative = inhibition is inactive: 1.35%.

Regarding `Cc1cccc([N+](=O)[O-])c1[N+](=O)[O-]`, the activity change, negative = inhibition was inactive: 1.19%.

Consider `CCC(C)(OO)OOC(C)(CC)OO` (configuration not stated), for which the activity change, negative = inhibition is inactive: 0.0223%.

Take `O=[N+]([O-])c1cccc([N+](=O)[O-])c1`: the activity change, negative = inhibition is inactive: -0.128%.

On to `Cc1ccc([N+](=O)[O-])cc1[N+](=O)[O-]`, for which the activity change, negative = inhibition is inactive: 1.23%.

Regarding `Cc1ccc(C)c(NP(C)(=O)Oc2ccccc2)c1` (configuration not stated), the activity change, negative = inhibition is inactive: 0.442%.

With `Cc1nc2ccc3ccccc3c2s1.O=[N+]([O-])c1cc([N+](=O)[O-])c(O)c([N+](=O)[O-])c1`, the activity change, negative = inhibition is inactive: 1.21%.

Regarding `N1=C(c2nnc(-c3nn[nH]n3)nn2)NNN1`, the activity change, negative = inhibition was inactive: 0.302% [at 11.5 µM].

As for `CP(=S)(Nn1cnnc1)Oc1ccccc1` (configuration not stated), the activity change, negative = inhibition was inactive: -0.0935%.

On to `CP(=O)(NC(=O)Nc1ccccc1)Oc1ccccc1` (configuration not stated), for which the activity change, negative = inhibition was inactive: -0.83%.

Regarding `CCOP(C)(=S)SCC(=O)NC(C)C(=O)O` (configuration not stated), the activity change, negative = inhibition is inactive: -2.61%.

Take `O=[N+]([O-])[O-].[NH4+]`: the activity change, negative = inhibition was inactive: 1.5%.

For the compound `Cc1ccc(NP(C)(=O)Oc2ccccc2)c(C)c1` (configuration not stated), the activity change, negative = inhibition was inactive: 0.116%.

With `COc1ccccc1OP(C)(=O)Nc1ccc(C)cc1` (configuration not stated), the activity change, negative = inhibition is inactive: -5.33%.
